Results reported in patent US20250195530A1, “POLQ INHIBITORS” (ASTRAZENECA AB, priority 2022, published 2025).

By UniProt entry, the sequences of proteins in these tests, tags left out. Residues count along the entry.
UniProt O75417, 1780-2590: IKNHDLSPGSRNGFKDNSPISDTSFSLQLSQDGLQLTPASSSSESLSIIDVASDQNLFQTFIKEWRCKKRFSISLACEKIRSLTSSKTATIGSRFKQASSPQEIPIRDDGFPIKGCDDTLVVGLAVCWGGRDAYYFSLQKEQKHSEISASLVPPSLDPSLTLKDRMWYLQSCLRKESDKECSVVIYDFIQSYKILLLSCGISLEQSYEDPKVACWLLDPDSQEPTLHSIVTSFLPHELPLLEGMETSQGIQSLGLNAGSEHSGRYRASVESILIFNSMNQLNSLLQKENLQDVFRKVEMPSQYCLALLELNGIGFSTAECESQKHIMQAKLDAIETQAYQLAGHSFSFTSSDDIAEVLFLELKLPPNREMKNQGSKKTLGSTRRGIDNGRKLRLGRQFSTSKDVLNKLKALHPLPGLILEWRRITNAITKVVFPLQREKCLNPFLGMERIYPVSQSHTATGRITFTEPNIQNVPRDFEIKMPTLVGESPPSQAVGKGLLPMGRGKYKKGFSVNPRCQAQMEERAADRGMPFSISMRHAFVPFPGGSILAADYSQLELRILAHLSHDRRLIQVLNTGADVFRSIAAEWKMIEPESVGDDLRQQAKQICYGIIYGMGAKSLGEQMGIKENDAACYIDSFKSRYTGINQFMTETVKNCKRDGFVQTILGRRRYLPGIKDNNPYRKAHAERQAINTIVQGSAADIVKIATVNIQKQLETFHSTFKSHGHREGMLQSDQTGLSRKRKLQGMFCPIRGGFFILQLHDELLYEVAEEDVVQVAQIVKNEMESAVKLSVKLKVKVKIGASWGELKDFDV

Biological target: isolated polymerase domain (I1780-V2590) of DNA polymerase theta (Polθ) (Homo sapiens (Human), UniProt O75417)

Row | Structure (SMILES) | IC50 [nM]
1 | CN1CCN(CCOc2ccc(-c3nc4c(OC5(C)CC5)ncnc4n3Cc3ccccc3)c(F)c2F)CC1 [Example H5, 9-benzyl-8-(2,3-difluoro-4-(2-(4-methylpiperazin-1-yl)ethoxy)phenyl)-6-(1-methylcyclopropoxy)-9H-purine] | 2.51
2 | CC1(Oc2ncnc3c2nc(-c2cc(Cl)c(OCCN4CCNCC4)cc2Cl)n3Cc2ccccc2)CC1 [Example J4, 9-benzyl-8-(2,5-dichloro-4-(2-(piperazin-1-yl)ethoxy)phenyl)-6-(1-methylcyclopropoxy)-9H-purine] | 5.01
3 | CC1(Oc2ncnc3c2nc(-c2ccc(C(=O)N4CCNCC4)cc2Cl)n3Cc2ccccc2)CC1 [Example N3, (4-(9-benzyl-6-(1-methylcyclopropoxy)-9H-purin-8-yl)-3-chlorophenyl)(piperazin-1-yl)methanone] | 31.6
4 | COc1ccc(Cl)cc1Cn1c(-c2ccc(O[C@H]3CC[C@@H](C(=O)O)CC3)cc2Cl)nc2c(OC3(C)CC3)ncnc21 [Example U40, (1s,4s)-4-(3-chloro-4-(9-(5-chloro-2-methoxybenzyl)-6-(1-methylcyclopropoxy)-9H-purin-8-yl)phenoxy)cyclohexane-1-carboxylic acid] | 10
5 | CC(=O)N1CCN(c2cc(C)c(-c3nc4c(OC5(C)CC5)ncnc4n3Cc3ccccc3)cn2)CC1 [Example C2, 1-(4-(5-(9-benzyl-6-(1-methylcyclopropoxy)-9H-purin-8-yl)-4-methylpyridin-2-yl)piperazin-1-yl)ethan-1-one] | 2.51
6 | Cc1cc(OCCN2CCN(C)CC2)ccc1-c1nc2c(OC3(C)CC3)ncnc2n1Cc1ccccc1 [Example C1, 9-benzyl-8-(2-methyl-4-(2-(4-methylpiperazin-1-yl)ethoxy)phenyl)-6-(1-methylcyclopropoxy)-9H-purine] | 2.51
7 | CC1(Oc2ncnc3c2nc(-c2ccc(OCCCN4CCNC(=O)C4)cc2Cl)n3Cc2ccccc2)CC1 [Example S2, 4-(3-(4-(9-benzyl-6-(1-methylcyclopropoxy)-9H-purin-8-yl)-3-chlorophenoxy)propyl)piperazin-2-one] | 5.01
8 | Cc1cc(OC[C@H]2COCCN2)ncc1-c1nc2c(OC3(C)CC3)ncnc2n1Cc1ccccc1 [Example G16, (R)-3-(((5-(9-benzyl-6-(1-methylcyclopropoxy)-9H-purin-8-yl)-4-methylpyridin-2-yl)oxy)methyl)morpholine] | 3.98
9 | COc1cccnc1Cn1c(-c2ccc(OCCN3CCNCC3)cc2Cl)nc2c(OC3(C)CC3)ncnc21 [Example L10, 8-(2-chloro-4-(2-(piperazin-1-yl)ethoxy)phenyl)-9-((3-methoxypyridin-2-yl)methyl)-6-(1-methylcyclopropoxy)-9H-purine] | 12.6
10 | CC1(Oc2ncnc3c2nc(-c2ccc(OCCN4CCNCC4)cc2Cl)n3Cc2ccccc2)CCC1 [Example 12, 9-Benzyl-8-(2-chloro-4-(2-(piperazin-1-yl)ethoxy)phenyl)-6-(1-methylcyclobutoxy)-9H-purine] | 3.98
11 | CC1(Oc2ncnc3c2nc(-c2ccc(O[C@H]4CNC[C@H]4F)cc2Cl)n3Cc2ccccc2)CC1 [Example D31, 9-benzyl-8-(2-chloro-4-(((3S,4R)-4-fluoropyrrolidin-3-yl)oxy)phenyl)-6-(1-methylcyclopropoxy)-9H-purine] | 7.94
12 | Cc1cc(OCCN2CCNCC2)ncc1-c1nc2c(OC3(C)CC3)ncnc2n1Cc1ccccc1Cl [Example J5, 9-(2-chlorobenzyl)-8-(4-methyl-6-(2-(piperazin-1-yl)ethoxy)pyridin-3-yl)-6-(1-methylcyclopropoxy)-9H-purine] | 6.31
13 | Cc1ccnc(Cn2c(-c3ccc(O[C@H]4C[C@@H](O)C4)cc3Cl)nc3c(OC4(C)CC4)ncnc32)c1 [Example T198, (1s,3s)-3-(3-chloro-4-(6-(1-methylcyclopropoxy)-9-((4-methylpyridin-2-yl)methyl)-9H-purin-8-yl)phenoxy)cyclobutan-1-ol] | 6.31
14 | CNC(=O)COc1ccc(-c2nc3c(OC4(C)CC4)ncnc3n2Cc2ccccc2)c(Cl)c1 [Example D21, 2-(4-(9-benzyl-6-(1-methylcyclopropoxy)-9H-purin-8-yl)-3-chlorophenoxy)-N-methylacetamide] | 5.01
15 | N#CC1(Oc2ncnc3c2nc(-c2ccc(OCCN4CCNCC4)cc2Cl)n3Cc2ccccc2)CC1 [Example 13, 1-((9-Benzyl-8-(2-chloro-4-(2-(piperazin-1-yl)ethoxy)phenyl)-9H-purin-6-yl)oxy)cyclopropane-1-carbonitrile] | 3.16
16 | C[C@H]1C(=O)NCCN1CCOc1ccc(-c2nc3c(OC4(C)CC4)ncnc3n2Cc2ccccc2)c(Cl)c1 [Example H19, (S)-4-(2-(4-(9-benzyl-6-(1-methylcyclopropoxy)-9H-purin-8-yl)-3-chlorophenoxy)ethyl)-3-methylpiperazin-2-one] | 2.51
17 | CNC(=O)c1ccc(-c2nc3c(OC4(C)CC4)ncnc3n2Cc2ccccc2)c(Cl)c1 [Example N2, 4-(9-benzyl-6-(1-methylcyclopropoxy)-9H-purin-8-yl)-3-chloro-N-methylbenzamide] | 5.01
18 | C[C@H]1CN(CCOc2ccc(-c3nc4c(OC5(C)CC5)ncnc4n3Cc3ccccc3)c(Cl)c2)CCN1 [Example R3, (S)-9-benzyl-8-(2-chloro-4-(2-(3-methylpiperazin-1-yl)ethoxy)phenyl)-6-(1-methylcyclopropoxy)-9H-purine] | 2.51
